Columns and labels:
[1] = target: ERβ (Homo sapiens, UniProt Q92731); assay: Competition with [3H]-17β-estradiol for ERβ ligand binding domain
[2] = target: ERα (Homo sapiens, UniProt P03372); assay: Competition with [3H]-17β-estradiol for ERα ligand binding domain; details: read-out: ERα IC50; crude E. coli lysate expressing human ERα LBD (D, E, & F); 2 nM [3H]-17β-estradiol; 5-15 hours at room temperature

Amino acid sequences for entries named in this document (tags omitted). Residues count along the entry.
UniProt Q92731, 264-498 limits assumed: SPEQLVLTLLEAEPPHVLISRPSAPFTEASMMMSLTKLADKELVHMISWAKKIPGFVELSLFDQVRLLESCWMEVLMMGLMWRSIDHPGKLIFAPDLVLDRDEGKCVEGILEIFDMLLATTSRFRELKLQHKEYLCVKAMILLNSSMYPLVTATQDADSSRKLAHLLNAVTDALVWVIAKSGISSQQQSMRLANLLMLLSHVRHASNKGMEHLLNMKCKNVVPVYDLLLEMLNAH
UniProt P03372, 311-547 limits assumed: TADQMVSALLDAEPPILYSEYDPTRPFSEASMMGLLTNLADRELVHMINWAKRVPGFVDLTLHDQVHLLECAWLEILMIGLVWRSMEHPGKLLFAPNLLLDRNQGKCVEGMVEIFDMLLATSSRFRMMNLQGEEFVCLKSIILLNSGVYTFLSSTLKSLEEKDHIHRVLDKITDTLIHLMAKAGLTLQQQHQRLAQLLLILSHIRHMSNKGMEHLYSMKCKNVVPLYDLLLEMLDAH

Compound: N#Cc1cc(O)cc2ccc(-c3ccc(O)c(F)c3)nc12
- IC50 ([1]; read-out: ERβ IC50, crude E. coli lysate expressing human ERβ LBD (D, E, & F), 2 nM [3H]-17β-estradiol, 5-15 hours at room temperature): 17 nM
- α/β ([1]; receptor selectivity, ratio ERα IC50 / ERβ IC50): 32
- IC50 [2]: 548 nM
